The results in this text go back to patent US20260382689A1, “METHODS OF PREVENTING AND/OR TREATING SIDE EFFECTS ASSOCIATED WITH ANTI-CANCER AGENTS USING NON-NATURALLY OCCURRING MELANOCORTIN ANALOGS WITH ANTI-GDF-15 ANTIBODIES” (published 2026).

Sequences of proteins named here, by UniProt entry; tags and fusion partners are left off.
UniProt Q01726, whole entry: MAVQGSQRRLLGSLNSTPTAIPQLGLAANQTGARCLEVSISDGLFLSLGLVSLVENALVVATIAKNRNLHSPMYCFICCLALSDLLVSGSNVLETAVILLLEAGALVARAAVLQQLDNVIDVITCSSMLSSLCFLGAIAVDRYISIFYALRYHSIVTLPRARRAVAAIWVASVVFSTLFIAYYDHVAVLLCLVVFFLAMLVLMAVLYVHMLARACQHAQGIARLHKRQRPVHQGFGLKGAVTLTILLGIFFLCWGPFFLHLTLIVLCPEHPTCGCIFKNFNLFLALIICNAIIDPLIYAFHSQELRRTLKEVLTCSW

pEC50: −log10 of the molar value. Bounds are passed on as bounds.

This test has as its target melanocortin 1 receptor (MC1R) (Homo sapiens, UniProt Q01726). Put plainly: cAMP accumulation assay (HTRF), agonist and/or antagonist activity at MC1R (Example 1, Table 11). The conditions noted are these: dose-response, cAMP. For orientation: Changes in cAMP serve as a functional read-out for many G protein-coupled receptors.

For orientation: pEC50 means −log10 of the EC50, conventionally taken in molar units. Read a low pEC50 as a high EC50. With `CCCC[C@H](NC(C)=O)C(=O)N[C@H]1CC(=O)NCCCC[C@@H](C(=O)N[C@H](C(=O)N2CCC[C@H]2C(N)=O)C(C)C)NC(=O)[C@H](Cc2c[nH]c3ccccc23)NC(=O)[C@H](CCCNC(=N)N)NC(=O)[C@@H](Cc2ccc3ccccc3c2)NC(=O)[C@@H]2CCCN2C1=O`, the pEC50 is 9.82.
The value for `CCCC[C@@H](NC(C)=O)C(=O)N[C@H]1CC(=O)NCCCC[C@@H](C(=O)N[C@@H](C(=O)N2CCC[C@@H]2C(N)=O)C(C)C)NC(=O)[C@H](Cc2c[nH]c3ccccc23)NC(=O)[C@H](CCCNC(=N)N)NC(=O)[C@@H](Cc2ccc3ccccc3c2)NC(=O)[C@@H]2CCCN2C1=O` was 7.31; that for `CCCC[C@H](NC(C)=O)C(=O)N[C@H]1CC(=O)NCCCC[C@@H](C(=O)N[C@H](CC(N)=O)C(N)=O)NC(=O)[C@H](Cc2c[nH]c3ccccc23)NC(=O)[C@H](CCCNC(=N)N)NC(=O)[C@@H](Cc2ccc3ccccc3c2)NC(=O)[C@@H]2CCCN2C1=O` was 8.00; that for `CCCC[C@H](NC(C)=O)C(=O)N[C@@H]1CC(=O)NCCCC[C@@H](C(=O)N[C@@H](C(=O)N2CCC[C@@H]2C(N)=O)C(C)C)NC(=O)[C@H](Cc2c[nH]c3ccccc23)NC(=O)[C@H](CCCNC(=N)N)NC(=O)[C@@H](Cc2ccc3ccccc3c2)NC(=O)[C@@H]2CCCN2C1=O` was 8.38.
The value for `CCCC[C@H](NC(C)=O)C(=O)N[C@H]1CC(=O)NCCCC[C@@H](C(=O)N[C@@H](C(=O)N2CCC[C@@H]2C(N)=O)C(C)C)NC(=O)[C@H](Cc2c[nH]c3ccccc23)NC(=O)[C@H](CCCNC(=N)N)NC(=O)[C@@H](Cc2ccc3ccccc3c2)NC(=O)[C@H]2CCCN2C1=O` was 6.29; that for `CCCC[C@H](NC(C)=O)C(=O)N[C@H]1CSSC[C@@H](C(=O)N[C@@H](C(=O)N2CCC[C@@H]2C(N)=O)C(C)C)NC(=O)[C@H](Cc2c[nH]c3ccccc23)NC(=O)[C@H](CCCNC(=N)N)NC(=O)[C@@H](Cc2ccc3ccccc3c2)NC1=O` was < 6.00; that for `CCCC[C@H](NC(C)=O)C(=O)N[C@H]1CC(=O)NCCCC[C@@H](C(=O)NCC(=O)NCC(N)=O)NC(=O)[C@H](Cc2c[nH]c3ccccc23)NC(=O)[C@H](CCCNC(=N)N)NC(=O)[C@@H](Cc2ccc3ccccc3c2)NC(=O)[C@@H]2CCCN2C1=O` was 8.66.
In turn, `CCCC[C@H](NC(C)=O)C(=O)N[C@H]1CC(=O)NCCCC[C@H](C(=O)N[C@@H](C(=O)N2CCC[C@@H]2C(N)=O)C(C)C)NC(=O)[C@H](Cc2c[nH]c3ccccc23)NC(=O)[C@H](CCCNC(=N)N)NC(=O)[C@@H](Cc2ccc3ccccc3c2)NC(=O)[C@@H]2CCCN2C1=O` gave a pEC50 of 6.01.
On to `CCCC[C@H](NC(C)=O)C(=O)N[C@H]1CC(=O)NCCCC[C@@H](C(=O)N[C@@H](C(=O)N[C@H](CC(N)=O)C(N)=O)C(C)C)NC(=O)[C@H](Cc2c[nH]c3ccccc23)NC(=O)[C@H](CCCNC(=N)N)NC(=O)[C@@H](Cc2ccc3ccccc3c2)NC(=O)[C@@H]2CCCN2C1=O`, for which the negative-log EC50 (pEC50) was 7.96.
The value for `CCCC[C@H](NC(C)=O)C(=O)N[C@H]1CC(=O)NCCCC[C@@H](C(=O)N2CCC[C@@H]2C(=O)N2CCC[C@@H]2C(N)=O)NC(=O)[C@H](Cc2c[nH]c3ccccc23)NC(=O)[C@H](CCCNC(=N)N)NC(=O)[C@@H](Cc2ccc3ccccc3c2)NC(=O)[C@@H]2CCCN2C1=O` was 7.07.
The value for `CCCC[C@H](NC(C)=O)C(=O)N[C@@H]1CSSC[C@@H](C(=O)N[C@@H](C(=O)N2CCC[C@@H]2C(N)=O)C(C)C)NC(=O)[C@H](Cc2c[nH]c3ccccc23)NC(=O)[C@H](CCCNC(=N)N)NC(=O)[C@@H](Cc2ccc3ccccc3c2)NC(=O)[C@@H]2CCCN2C1=O` was 9.23; that for `CCCC[C@H](NC(C)=O)C(=O)N[C@H]1CC(=O)NCCCC[C@@H](C(=O)N[C@@H](CC(N)=O)C(N)=O)NC(=O)[C@H](Cc2c[nH]c3ccccc23)NC(=O)[C@H](CCCNC(=N)N)NC(=O)[C@@H](Cc2ccc3ccccc3c2)NC(=O)[C@@H]2CCCN2C1=O` was 8.42; that for `CCCC[C@H](NC(C)=O)C(=O)N[C@@H]1CSSC[C@H](C(=O)N[C@@H](C(=O)N2CCC[C@@H]2C(N)=O)C(C)C)NC(=O)[C@H](Cc2c[nH]c3ccccc23)NC(=O)[C@H](CCCNC(=N)N)NC(=O)[C@@H](Cc2ccc3ccccc3c2)NC1=O` was < 6.00.
In turn, `CCCC[C@H](NC(C)=O)C(=O)N[C@H]1CC(=O)NCCCC[C@@H](C(=O)N[C@@H](C(=O)N2CCC[C@@H]2C(N)=O)C(C)C)NC(=O)[C@H](CCCNC(=N)N)NC(=O)[C@@H](Cc2ccc3ccccc3c2)NC(=O)[C@@H]2CCCN2C1=O` gave a negative logarithm of the EC50 (pEC50) of 6.52.
The value for `CCCC[C@H](NC(C)=O)C(=O)N[C@H]1CC(=O)NCCCC[C@@H](C(=O)N[C@@H](C(=O)N2CCC[C@@H]2C(N)=O)C(C)C)NC(=O)[C@H](Cc2c[nH]cn2)NC(=O)[C@H](CCCNC(=N)N)NC(=O)[C@@H](Cc2ccc3ccccc3c2)NC(=O)[C@@H]2CCCN2C1=O` was < 6.00.
`CCCC[C@H](NC(C)=O)C(=O)N[C@H]1CC(=O)NCCCC[C@@H](C(=O)N2CCC[C@@H]2C(N)=O)NC(=O)[C@H](Cc2c[nH]c3ccccc23)NC(=O)[C@H](CCCNC(=N)N)NC(=O)[C@@H](Cc2ccc3ccccc3c2)NC(=O)[C@@H]2CCCN2C1=O` gave a pEC50 of 6.82.
The value for `CCCC[C@H](NC(C)=O)C(=O)N[C@H]1CC(=O)NCCCC[C@@H](C(=O)N2CCC[C@H]2C(N)=O)NC(=O)[C@H](Cc2c[nH]c3ccccc23)NC(=O)[C@H](CCCNC(=N)N)NC(=O)[C@@H](Cc2ccc3ccccc3c2)NC(=O)[C@@H]2CCCN2C1=O` was 7.19; that for `CCCC[C@H](NC(C)=O)C(=O)N[C@H]1CC(=O)NCCCC[C@@H](C(=O)N[C@@H](C(=O)N2CCC[C@@H]2C(N)=O)C(C)C)NC(=O)[C@H](Cc2c[nH]c3ccccc23)NC(=O)[C@H](CCCNC(=N)N)NC(=O)[C@@H](Cc2ccc3ccccc3c2)NC1=O` was 6.03; that for `CCCC[C@H](NC(C)=O)C(=O)N[C@H]1C(=O)N2CCC[C@H]2C(=O)N[C@H](Cc2ccc3ccccc3c2)C(=O)N[C@@H](CCCNC(=N)N)C(=O)N[C@@H](Cc2c[nH]c3ccccc23)C(=O)N[C@@H](C(=O)N[C@@H](C(=O)N2CCC[C@@H]2C(N)=O)C(C)C)C(C)(C)SSC1(C)C` was < 6.00.
The value for `CCCC[C@H](NC(C)=O)C(=O)N[C@H]1CC(=O)NCCCC[C@@H](C(=O)N[C@@H](C(=O)N2CCC[C@@H]2C(N)=O)C(C)C)NC(=O)[C@H](Cc2c[nH]c3ccccc23)NC(=O)[C@H](CCCNC(=N)N)NC(=O)[C@@H](Cc2ccc3ccccc3c2)NC(=O)[C@@H](CCSC)NC1=O` was 6.89; that for `CCCC[C@H](NC(C)=O)C(=O)N[C@H]1C(=O)N2CCC[C@H]2C(=O)N[C@H](Cc2ccc3ccccc3c2)C(=O)N[C@@H](CCCNC(=N)N)C(=O)N[C@@H](Cc2c[nH]c3ccccc23)C(=O)N[C@H](C(=O)N[C@@H](C(=O)N2CCC[C@@H]2C(N)=O)C(C)C)C(C)(C)SSC1(C)C` was 8.34; that for `CCCC[C@H](NC(C)=O)C(=O)N[C@H]1CC(=O)NCCCC[C@@H](C(=O)N[C@H](C)C(N)=O)NC(=O)[C@H](Cc2c[nH]c3ccccc23)NC(=O)[C@H](CCCNC(=N)N)NC(=O)[C@@H](Cc2ccc3ccccc3c2)NC(=O)[C@@H]2CCCN2C1=O` was 8.32.
The value for `CCCC[C@H](NC(C)=O)C(=O)N[C@H]1CSSC[C@H](C(=O)N[C@@H](C(=O)N2CCC[C@@H]2C(N)=O)C(C)C)NC(=O)[C@H](Cc2c[nH]c3ccccc23)NC(=O)[C@H](CCCNC(=N)N)NC(=O)[C@@H](Cc2ccc3ccccc3c2)NC1=O` was < 6.00.
